# Target: Her2 (UniProt P04626)
# Experiment: cell-based or functional assay
substance,measurement,value
4D5-AzAb (HC274: LC70)-AF (antibody),"EC50 nM, concentration of the drug to kill 50% of the tumor cells in vitro, HCC1954 cells",0.0306 nM
same,"EC50 nM, concentration of the drug to kill 50% of the tumor cells in vitro, SKOV3 cells",0.108 nM
